A selection: hits, their analogues and other compounds. The true share with any hit is near 2.8%.
PglD inh = C. jejuni PglD acetyltransferase inhibitors, primary screen, biochemical, DTNB colorimetric, single point; UDP-N-acetylbacillosamine N-acetyltransferase PglD (Campylobacter jejuni); purified PglD enzyme, DTNB colorimetric CoA detection; inhibition, % at 12.5 µM; 0.098% of 360,000 active; AID 602405, 2012; in the data active = inhibition above about 16%, passing the limit was not always enough; inconclusive = no clear call, values can overlap the other calls
C2C12 statin = suppressors of statin myotoxicity in C2C12 myotubes, primary screen, cell-based, single point, plate reader; rescue of ATP level, % at 7.49 µM; 0.78% of 330,000 active; AID 602340, 2012; C2C12 myotubes + simvastatin, ATP luminescence, 48 h; scaled: DMSO 0, geranylgeraniol control 100;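 active = mean ATP rescue above about 67%, or every replicate alone reaching that limit, limit read from the data, passing the limit was not always enough; inconclusive = no clear call, values can overlap the other calls; inactive = mean under the limit and some replicate under it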;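 also: myotubes were challenged with 10 µM simvastatin during compound exposure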
UUG fidelity = modulators of start codon recognition fidelity in yeast; AID 602363; activity score, % at 18.7 µM; S. cerevisiae UUG-firefly luciferase reporter, luminescence/redox ratio; actives 0.13% (n = 350,000);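 active = replicate mean at a twofold rise or more, about +100% in these data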;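 note: firefly luciferase made from a UUG start codon reports start codon fidelity; reporter light over untreated wells divided by growth signal over untreated wells; some hits fall short of that in this replicate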
esBAF inh = Bmi1 luciferase reporter increase in mESCs, primary screen, esBAF inhibitor project, mouse ES cells, Bmi1 luciferase knock-in, single point; 24 h; 100% = twice the neutral-well signal; reporter increase, % at 12.5 µM; 2% of 350,000 active; AID 602393, 2012; in the data active = activation above about 40%; inconclusive = no clear call, values can overlap the other calls;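 also: a rise in the Bmi1 reporter signal indicates esBAF inhibition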
PGC1a acetyl inh = inhibitors of PGC1a acetylation signal, primary screen, cell-based, U2OS, AlphaScreen, inhibitor mode. AlphaScreen anti-acetyl-lysine; with virally co-expressed GCN5 acetyltransferase. inhibition, % at 15.6 µM. 0.17% of 350,000 active;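 active = every replicate shows inhibition of at least 40%; inconclusive = mean inhibition at least 40% but some replicate below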
E-selectin induc = E-selectin induction in HUVECs, primary screen, imaging, HUVEC, immunofluorescence imaging, single point; P16581; normalized: neutral wells 0, TNF-alpha wells 100; activation, % at 7.58 µM; 0.37% of 260,000 active; AID 686992, 2013;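 active = mean E-selectin-positive cell signal at least 10% of the positive control, reached in at least 60% of replicates, without over 20% cell loss; inconclusive = no rule given, readout overlaps actives, possibly toxicity-flagged; inactive = the rest, including those meeting only one limit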
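Read-out basis: % PE-positive cells; Test system: HUVEC primary endothelial cells; Technique: immunofluorescence imaging; Dosing: single-point compound dose.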
Hits are given with their value; i = inactive; ? = inconclusive; nt = no result.

SMILES	PglD inh	C2C12 statin	UUG fidelity	esBAF inh	PGC1a acetyl inh	E-selectin induc
CO[C@H]1CN(C)C(=O)c2ccc(NC(C)=O)cc2OC[C@@H](C)N(C(=O)C2CCC2)C[C@H]1C	i	i	i	i	i	i
C[C@@H]1CN([C@H](C)CO)C(=O)Cc2cc(NC(=O)Nc3ccccc3)ccc2O[C@@H]1CN(C)C(=O)NC1CCCCC1	i	i	i	i	i	i
CCNC(=O)Nc1ccc2c(c1)C(=O)N(C)[C@H]1CC[C@H](CC(=O)NCC3CCCCC3)O[C@H]1CO2	i	i	i	i	i	i
Cc1cccc(-n2c(O)c(C=NC3CCS(=O)(=O)C3)c3ccccc3c2=O)c1 (stereo not drawn)	i	138.0	i	i	i	nt
COc1cccc(NC(=O)N(C)C[C@@H]2Oc3ncc(C#Cc4ccc(F)cc4)cc3C(=O)N([C@H](C)CO)C[C@@H]2C)c1	i	i	i	i	i	i
Cc1cccc(S(=O)(=O)N2CCCCN3[C@H](C2)[C@H](c2ccc(C#CC4CC4)cc2)[C@@H]3CO)c1	i	nt	i	nt	i	i
COc1ccc2c(=O)c(C(=O)NCCc3ccccc3)c[nH]c2c1	i	i	i	55.0	nt	i
COc1ccc2cc(C(=O)NCCc3ccccc3)[nH]c2c1	i	i	i	42.8	i	i
CC(=O)N(C)c1ccc(NC(=O)Cc2cccc3ccccc23)cc1	i	122.6	i	i	i	nt
CCCCc1nc2cc(C(=O)N(C)C3CCOCC3)ccc2o1	i	i	i	93.7	i	i
Nc1ccc(OCc2ccccc2)cc1[N+](=O)[O-]	i	i	i	43.7	i	i
O=[N+]([O-])c1cccnc1Oc1ccc(OCc2ccccc2)cc1	i	i	i	?	nt	i
NC(=O)c1ccsc1NC(=O)c1ccc2c(c1)CCCC2	i	i	i	i	i	i
CNC(=O)c1ccsc1NC(=O)c1ccc2c(c1)CCCC2	i	nt	i	56.1	i	i
COCC(=O)N1CCC2(CC1)CN(Cc1ccccn1)[C@@H](CO)c1[nH]c3cc(OC)ccc3c12	nt	nt	nt	nt	i	i
Cc1ccc(S(=O)(=O)N(C)C[C@H]2OCCCC[C@H](C)Oc3ccc(NC(=O)Nc4ccc5c(c4)OCO5)cc3C(=O)N([C@@H](C)CO)C[C@H]2C)cc1	i	nt	i	i	i	nt
COc1ccc(S(=O)(=O)Nc2ccc3c(c2)C(=O)N([C@@H](C)CO)C[C@@H](C)[C@H](CN(C)S(=O)(=O)c2c(C)noc2C)OCCCC[C@@H](C)O3)cc1	i	nt	i	i	i	nt
COc1ccc(C#Cc2cnc3c(c2)C(=O)N([C@H](C)CO)C[C@H](C)[C@H](CN(C)C(=O)CN(C)C)O3)cc1	i	i	i	i	i	i
COc1ccc(C#Cc2ccc3c(c2)O[C@H](CN(C)C(=O)Nc2cccc(OC)c2)[C@H](C)CN([C@@H](C)CO)S3(=O)=O)cc1	i	72.9	i	i	i	i
COc1ccc(C#Cc2ccc3c(c2)O[C@@H](CN(C)C(=O)Nc2cccc(OC)c2)[C@@H](C)CN([C@H](C)CO)S3(=O)=O)cc1	i	i	i	i	i	i
COc1ccc(C#Cc2ccc3c(c2)O[C@@H](CN(C)C(=O)Nc2cccc(OC)c2)[C@H](C)CN([C@@H](C)CO)S3(=O)=O)cc1	i	i	i	i	i	35.2
C[C@H](CO)N1C[C@H](C)[C@H](CN(C)C(=O)Nc2cc(F)ccc2F)Oc2cc(C#CC3CC3)ccc2S1(=O)=O	nt	74.8	nt	nt	i	i
COc1cccc(NC(=O)N(C)C[C@@H]2Oc3cc(C#Cc4ccc(F)cc4)ccc3S(=O)(=O)N([C@H](C)CO)C[C@@H]2C)c1	i	i	i	i	i	i
COc1cccc(NC(=O)N(C)C[C@@H]2Oc3ncc(C#Cc4ccc(F)cc4)cc3C(=O)N([C@@H](C)CO)C[C@H]2C)c1	i	72.5	i	i	i	i
C[C@@H]1CN([C@@H](C)CO)S(=O)(=O)c2ccc(C#CC3CC3)cc2O[C@@H]1CN(C)C(=O)Nc1cc(F)ccc1F	nt	i	nt	nt	i	i
